The nature of this data set: Veliparib plasma pharmacokinetics. In kind it is in vivo, human.

For the molecule `C[C@]1(c2nc3c(C(N)=O)cccc3[nH]2)CCCN1` [Veliparib, veliparib], the Cl/F is given as 33.2±18.4 (3) L/h (veliparib 20 mg alone (day 1), temozolomide dose 150 or 200 mg/m^2/day); 22.9±3.6 (3) L/h (veliparib 20 mg in combination with temozolomide 150 or 200 mg/m^2/day (day 8)); 8.6 (1) L/h (veliparib 40 mg alone (day 1), temozolomide dose 200 mg/m^2/day, n=1); 20.2±4.9 (10) L/h (veliparib 120 mg alone (day 1), temozolomide dose 200 mg/m^2/day); 15.0±3.6 (8) L/h (veliparib 120 mg in combination with temozolomide 200 mg/m^2/day (day 8)); 18.4±7.5 (16) L/h (veliparib 150 mg alone (day 1), temozolomide dose 200 mg/m^2/day). Moreover, the Cl/F is on record as 14.6±6.8 (10) L/h (veliparib 150 mg in combination with temozolomide 200 mg/m^2/day (day 8)); 14.6±5.1 (4) L/h (veliparib 200 mg alone (day 1), temozolomide dose 200 mg/m^2/day); 14.6±4.1 (3) L/h (veliparib 200 mg in combination with temozolomide 200 mg/m^2/day (day 8)).

Values taken from article PMC5290001 (Clinical cancer research : an official journal of the …, 2016).
